Results: patent publication US10828301B2, “2,4-pyrimidinediamine compounds and their uses” (Rigel Pharmaceuticals, Inc, priority 2002, dated 2020)

Tests used:
[1] = tested on: cultured human mast cells (CHMC); test: CHMC low cell density IgE activation: tryptase and LTC4 assays; format: cell-based; settings: anti-IgE activation, tryptase readout
Method: Pellet CHMC cells (980 rpm, 10 min) and resuspend in pre-warmed MT. Add 65 ul of cells to each 96-well plate. Depending on the degranulation activity for each particular CHMC donor, load 1000-1500 cells/well. Mix four times followed by a 1 hr incubation at 37° C. […] Stimulate cells by adding 25 ul of 6× anti-IgE solution to the appropriate plates. Add 25 ul MT to un-stimulated control wells. Mix twice following addition of the anti-IgE. Incubate at 37° C. for 30 minutes. […] Spin plates at 1000 rpm for 10 min to pellet cells. Transfer 25 ul of supernatant to a 96-well black bottom plate and add 100 ul of freshly diluted tryptase substrate solution to each well. Incubate plates at room temperature for 30 min.
Leukotriene C4 (LTC4) is also quantified using an ELISA kit on appropriately diluted supernatant samples (determined empirically for each donor cell population so that the sample measurement falls within the standard curve) following the supplier's instructions.

[2] = tested on: bone marrow derived mast cells (BMMC); test: BMMC high cell density IgE activation: degranulation (hexosiminidase, histamine), leukotriene (LTC4) and cytokine (TNFalpha, IL-6) assays; format: cell-based; settings: Mus musculus, anti-IgE activation
Method: After sensitizing, cells are counted, pelleted (1000 rpm, 5-10 minutes), and resuspended at 1-3×10^6 cells/ml in MT buffer. Add 100 ul of cell suspension to each well and 100 ul of compound dilutions. The final vehicle concentration is 0.5% DMSO. Incubate at 37° C. (5% CO2) for 1 hour. After 1 hour of compound treatment, stimulate cells with 6× stimulus (60 ng/ml DNP-BSA). Mix wells with the cells and allow plates to incubate at 37° C. (5% CO2) for one hour. After 1 hour incubation, pellet cells (10 minutes, 1000 RPM) and collect 200 ul per well of the supernatant, being careful not to disturb pellet, and transfer to a clean tube or 96-well plate. Place the supernatant plate on ice. During the 4-5 hour step (see next) perform the hexosiminidase assay. Resuspend cell pellet in 240 ul WEI-conditioned media containing 0.5% DMSO and corresponding concentration of compound. Incubate BMMC cells for 4-5 hours at 37° C. (5% CO2). After incubation, pellet cells (1000 RPM, 10 minutes) and collect 225 ul per well and place in −80° C. until ready to perform ELISAS. ELISAS are performed on appropriately diluted samples (determined empirically for each donor cell population so that the sample measurement falls within the standard curve) following the supplier's instructions.
Add 50 uL of BMMC cell supernatant (see above) to the hexoseaminidase substrate, place at 37° C. for 30 minutes and read the plate at 5, 10, 15, and 30 minutes on a spectrophotometer.

[3] = 14-day oral toxicity study, mouse, 300 mg/kg
Method: Several non-GLP pilot toxicity studies have been conducted in rodents. […] In a 14-day oral toxicity study in the mouse was conducted with doses of 100, 300 and 1000 mg/kg.

[4] = Sheep model of allergic asthma (Ascaris suum challenge); format: in vivo; settings: 30 mg/sheep, pretreatment 60 min, 45% PEG400/55% citrate buffer
Method: Sheep develop bronchoconstriction within minutes of exposure to inhaled antigen (Ascaris suum), with maximal airflow obstruction during the early allergic response (EAR). Release of preformed mast cell mediators is likely responsible for this early phase of airflow obstruction. […] In the sheep, AHR develops a few hours following antigen challenge, and can persist for up to 2 weeks.
In the sheep model of allergic asthma, sheep are administered aerosols of test article via an endotracheal tube, followed by an aerosol challenge with antigen extracted from the roundworm, Ascaris suum, to which the sheep are naturally allergic. Allergen challenge leads to direct bronchoconstriction (both EAR and LAR) and a persistent non-specific AHR. These three characteristics are similar to those seen in human allergic asthmatics. The activity of the test agent is determined by changes in the lung resistance (RL), which is calculated from measurements of transpulmonary pressure, flow, and respiratory volume. […] The LAR is a less pronounced increase in RL, which starts approximately 5-6 hours following allergen challenge and is resolved by 8 hours post-challenge. Twenty-four hours after the challenge, a dose response to carbachol is measured to determine the AHR, which is expressed as the dose of carbachol required to increase RL by 400% over baseline. […]

Structure (SMILES)	IC50 [1] [nM]	IC50 ([2]; IL-6 release, read-out: BMMC anti-IgE IL-6 IC50) [nM]	IC50 ([2]; LTC4 release, read-out: BMMC anti-IgE LTC4 IC50) [nM]	IC50 ([2]; TNF-alpha release, read-out: BMMC anti-IgE TNF-alpha IC50) [nM]	IC50 ([2]; hexosaminidase release, read-out: BMMC anti-IgE hexos IC50) [nM]	IC50 ([2]; histamine release, read-out: BMMC anti-IgE histamine IC50) [nM]	findings [3]	EAR (% inhibition) [4]	LAR (% inhibition) [4]
COc1cc(Nc2ncc(F)c(Nc3ccc4c(c3)OCCO4)n2)cc(OC)c1 [Compound R926791, N2-(3,5-Dimethoxyphenyl)-N4-(3,4-ethylenedioxyphenyl)-5-fluoro-2,4-pyrimidinediamine]	233	< 56	896	205	64	< 56	–	–	–
Nc1cccc(Nc2ncc(F)c(Nc3cccc(N)c3)n2)c1 [Compound R921302, N2,N4-Bis(3-aminophenyl)-5-fluoro-2,4-pyrimidinediamine]	–	–	–	–	–	–	histopathological changes in the vulva	unaffected	blocked the LAR and AHR

Where two headings read alike, the source gives them in different places.
